Results taken from US20130084328A1, “METHYLATED CODING AND NON-CODING RNA GENES AS DIAGNOSTIC AND THERAPEUTIC TOOLS FOR HUMAN MELANOMA” (Sanford-Burnham Medical Research Institute, priority 2011, published 2013).

Key:
Assay type in all cases: cell-based, human
[1] = system: WM1552C cells; assay: Matrigel invasion assay, miR-34b; conditions: WM1552C/34b vs WM1552C and WM1552C/VO, 48 hrs
Protocol: BD BioCoat™ growth factor reduced insert plates (Matrigel™ Invasion Chamber 12 well plates) were prepared by rehydrating the BD Matrigel™ matrix coating in the inserts with 0.5 ml of culture medium for 2 hrs at 37° C. The rehydration solution was carefully removed from the inserts, 0.75 mL Complete Tu medium containing chemoattractant (1% FBS) was added to the lower wells of the plate, and 0.5 mL of cell suspension (1×10^4 cells, in serum-free medium) was added to each insert well. […] Invasion assay plates were incubated for 48 hrs at 37° C. Following incubation, the non-invading cells were removed by scrubbing the upper surface of the insert. The cells on the lower surface of the insert were stained with crystal violet and each trans-well membrane mounted on a microscopic slide for visualization and analysis. The slides were scanned using the Scanscope digital slide scanner, and the number of cells migrating was counted using Aperio software.

[2] = system: WM1552C cells; assay: growth (proliferation) assay, miR-34b; conditions: WM1552C/34b vs WM1552C and WM1552C/VO, to 96 hrs
Protocol: Exponentially growing cells were trypsinized and counted with the help of a Countess cell counter (Invitrogen/Life Technologies) and seeded at 10^4 cells/cm^2 (0.1×10^6 cells/35-mm petri dish), which was taken as the initial value (N0) for all growth kinetics measurements. Cells were harvested at 24-hrs intervals up to 72 hrs by trypsinization. A minimum of 6 observations spread over 2 independent experiments were taken for determining the proliferation rate ‘pR’:
Where N0=number of cells at 0 h, and Nt=number of cells at time ‘t’. The mean doubling time of untreated cells was calculated from the exponential region of the growth curves, in this case between 24 hrs and 72 hrs.

[3] = system: WM1552C cells; assay: cell adhesion assay, miR-34b; conditions: WM1552C/34b vs WM1552C/VO, from 15 minutes after plating
Protocol: Trypsinized cells were counted, and 50,000 cells per well were seeded into 96-well plates. At 5, 15, and 30 min after seeding, floating cells were aspirated by rinsing the wells with PBS. The remaining cells in the wells were fixed and stained with 0.5% crystal violet in 50% methanol. The stain in the fixed cells was dissolved with acetic acid, and cell density was determined spectrophotometrically by measuring absorbance at OD560. Each sample was assayed in triplicate at each time point, and each experiment was repeated twice.

[4] = system: WM1552C melanoma cells; assay: qRT-PCR validation in WM1552C/34b versus WM1552C/VO cells; conditions: WM1552C/34b cells
Protocol: Total RNA was isolated by the Trizol method (Invitrogen/Life Technologies) with subsequent quantification and integrity analysis performed using an Agilent 2100 Bioanalyzer (Agilent Technologies, Santa Clara, Calif., USA). Total RNA (100 ng) was reverse transcribed using a High Capacity cDNA kit (Applied Biosystems/Life Technologies), and quantitative reverse-transcription PCR was carried out using TaqMan miRNA or mRNA Assays or SYBR Green mRNA Assays and a 7500 Real-Time PCR System (Applied Biosytems/Life Technologies) in accordance with the manufacturer's protocols. SYBR Green primers include CDC42 (CDC42 qPCR For-CTGCACCTAC CCACATGCAC TCGT [SEQ ID NO:19] and CDC42 qPCR Rev-TTAACTAGTA CTGGGAGGGG GAAGGG [SEQ ID NO:20]), FN1 (FN1 qPCR For-GGCTGACAGA GAAGATTCCC GAGAG [SEQ ID NO:21] and FN1 qPCR Rev-CCAGTTTAGA TGGATCTTGG CAGAGAGAC [SEQ ID NO:22]), and THBS2 (THBS2 qPCR For-TTACCGCTTC GTGCGCTTTG AC [SEQ ID NO:23] and THBS2 qPCR Rev-AACAGCGTGC CCCTGGACTT G [SEQ ID NO:24]). SDS1.2.3 software (Applied Biosystems/Life Technologies) was used for comparative Ct analysis, with RNU48, GAPDH, or β-actin serving as the endogenous controls.
Oligonucleotides complimentary to the hsa-miR-34b genomic sequences were constructed (miR-34b pre For-GTGCTCGGTT TGTAGGCAGT G [SEQ ID NO:25] and miR-34b pre Rev-GTGCCTTGTT TTGATGGCAG TG [SEQ ID NO:26]), containing HindIII and BamHI sites on their respective 5′ and 3′ ends, then amplified from melanocyte genomic DNA (Amplitaq Gold, Applied Biosystems/Life Technologies). The product was then TOPO cloned into pCR4-TOPO (Invitrogen/Life Technologies). The vector construct was sequenced and the pre-hsa-miR-34b fragment was sub-cloned into pcDNA4/H1-3TetR using the HindIII and BamHI sites to create pcDNA4/H1-3TetR/miR-34b. […] The following morning, cells were selected with 600 μg/mL Zeocin for the following 15 days.

With “miR-34b: nucleic acid exemplified by SEQ ID NO:2 (CAAUCACUAACUCCACUGCCAU); stably expressed in WM1552C from pcDNA4/H1-3TetR/miR-34b (WM1552C/34b) (CAAUCACUAACUCCACUGCCAU)” the “cell invasion: migrated slower” value [1] was 46%, the proliferation [2] was “decreased proliferation” and the cell adhesion [3] was “decreased cell adhesion”. For the same substance, the “DKK1 expression lower than in WM1552C/VO cells” value ([4]; Taqman qRT-PCR) was about 10 fold, the “miR-140 expression higher compared to WM1552C/VO cells” value ([4]; qRT-PCR) was about 3 fold and the “CDC42 expression lower relative to vector only control cells” value ([4]; quantitative RT-PCR) was 90%. The “FN1 expression lower relative to vector only control cells” value ([4]; quantitative RT-PCR) was about 70%.
